AlphaSeq binding of Ab-14 heavy chain variants to a spike HR2 peptide

Values reported by Engelhart et al. 2022, doi:10.1038/s41597-022-01779-4 (FLAb copy).

Antigen: PDVDLGDISGINAS, a 14-residue peptide of the SARS-CoV-2 spike HR2 region.

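The starting antibody came from a phage panning campaign against this peptide. Variants in AAYL49 differ from the parent at up to three CDR positions; double and triple changes were sampled at random. The assay is AlphaSeq: two haploid yeast populations carry antibody and antigen on their surface. Binding brings cells together so that they mate, and sequencing counts the barcode pairs among the diploids. Each replicate has its own calibration line, from reference interactions of the BCL2 family. There are three technical replicates.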

Parent scFv Ab-14: VH joined to VL by the linker GGGGSGGGGSGGGGS. Changes lie in the heavy chain CDRs alone.
VH: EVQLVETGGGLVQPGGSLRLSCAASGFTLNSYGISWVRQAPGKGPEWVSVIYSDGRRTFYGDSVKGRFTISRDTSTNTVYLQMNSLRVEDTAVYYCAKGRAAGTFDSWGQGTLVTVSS
VL: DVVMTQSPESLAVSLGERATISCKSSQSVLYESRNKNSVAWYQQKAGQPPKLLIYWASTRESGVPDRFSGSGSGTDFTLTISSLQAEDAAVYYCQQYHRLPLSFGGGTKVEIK

Variants are written as CDR1, CDR2 and CDR3 of the heavy chain (limits as in the source). Parent: GFTLNSYGIS, VIYSDGRRTFYGDSVK, GRAAGTFDS.
Values are log10 of the apparent Kd in nM; lower means stronger binding.
An entry "n.d." has no value in the source: the pair was not observed among the diploids in that replicate. This suggests poor binding but is not conclusive.
Background: pairings of library AAYL49 with three empty control strains gave a value in 15% of cases (median 4.06, 5th percentile 2.83). Values in that range, when seen in few replicates, are hard to tell from nonspecific mating. Also given: how often the same scFv was detected with the empty control strains, with their mean in brackets.
For reference, the parent read 0.65 as the reference entry and 4.11 (one replicate of three) as a member of this library.

| CDR-H1 | CDR-H2 | CDR-H3 | replicates, log10 nM | control signals |
|---|---|---|---|---|
| GFTDNSYGCS | VIYSDGRRTFYGDSVT | GRAAGTFDS | n.d. / n.d. / 5.66 | 2 of 9 (4.55) |
| GFTLNSYGIS | VIYSDGRRTFYGDSVK | GRAAGEFSS | n.d. / n.d. / n.d. | 0 of 9 |
| GFTLNSYGIS | VIYSDGRRTFYGDAVK | GQAAGTFDS | 0.41 / 0.61 / 0.63 | 0 of 9 |
| GFTLNSYGIS | VIYSDGRGTVYGDSVK | IRAAGTFDS | n.d. / n.d. / n.d. | 0 of 9 |
| GFTLKSYGIS | VIYADGRRTFYGDSVD | GRAAGTFDS | 0.10 / 0.35 / 0.16 | 2 of 9 (4.46) |
| GFTLNSYGIS | VIYSDGRRTFIGDSVK | TRAIGTFDS | 2.24 / 2.54 / n.d. | 0 of 9 |
| DFTLNSYGIS | VIYTTGRRTFYGDSVK | GRAAGTFDS | n.d. / n.d. / n.d. | 0 of 9 |
| GFTLNSYGIS | VNYSDGRRTFYGDSVK | GRAASTFDS | n.d. / 4.16 / 5.48 | 2 of 9 (4.28) |
| GFTLNSYGIS | VIYSSGRRHFYGDSVK | GRAAPTFDS | n.d. / 2.56 / 3.04 | 3 of 9 (3.01) |
| GDTLNSYGIS | VSYSDGRRTFYGDSVK | GMAAGTFDS | 2.81 / n.d. / n.d. | 0 of 9 |
| GFTLNSYGIS | VIISSGRCTFYGDSVK | GRAAGTFDS | n.d. / n.d. / n.d. | 2 of 9 (4.19) |
| NFTLNSYGIS | VIYSDGRRTFYMDSVK | GRPAGTFDS | 5.49 / 3.60 / 3.86 | 0 of 9 |
| GFTLNSYGVS | VIYSDGRRTFYGDSFK | GRSAGTFDS | 1.00 / 1.24 / 1.15 | 0 of 9 |
| GFTLNSYGIS | VIYSDGRRSFYGDSVK | GRADQTFDS | n.d. / 4.64 / n.d. | 1 of 9 (4.54) |
| GFTLNSYGIS | VIYSDGRMTFYGDSVK | GRAAGTYDS | n.d. / n.d. / n.d. | 0 of 9 |
| GFTLNSYGIS | VIYLDGRRTFKGDSVK | GRAAGTFDS | 4.16 / n.d. / 4.16 | 6 of 9 (4.41) |
| AFTANSYGIS | VIYSDGRRTFYGDSVK | GWAAGTFDS | n.d. / n.d. / n.d. | 0 of 9 |
| GFTLNSYGIS | VIHSDGRRTFYGDSVK | GRKAGTFMS | 2.65 / 2.47 / n.d. | 0 of 9 |
| GFTCNSYGIS | SIYSHGRRTFYGDSVK | GRAAGTFDS | n.d. / 3.02 / n.d. | 3 of 9 (3.90) |
| GFTLNSYGIS | VIYSDGRRTFYGDSVK | GRAAGTFIS | 1.18 / 1.26 / 1.36 | 0 of 9 |
| GFTLPSYGIS | VIYSDWRRTFYGDSVK | GRAASTFDS | n.d. / n.d. / n.d. | 4 of 9 (4.66) |
| GFTLNSYGIS | VIYSDGRRTFYGDSVS | GRADGTFDS | 1.94 / 1.93 / 1.90 | 3 of 9 (4.48) |
| GFTLNSDGIS | VMYSDGRRAFYGDSVK | GRAAGTFDS | n.d. / 3.91 / n.d. | 3 of 9 (3.16) |
| GFTLPSYGIS | VIYSDGRRTFYGDSVK | GRCAGTLDS | 2.41 / 2.51 / 4.12 | 0 of 9 |
| GFTGNSYGIS | VIYSDGRRTFYGMQVK | GRAAGTFDS | n.d. / n.d. / n.d. | 1 of 9 (3.68) |
| GFTLRSYGIS | VIYSDGYRTFYGDSVK | GRAQGTFDS | n.d. / 3.33 / n.d. | 2 of 9 (3.42) |
| GFSLNSYGIS | VIYSDGRRTRYGDSVT | GRAAGTFDS | 1.64 / 1.42 / 1.48 | 2 of 9 (4.86) |
| GFTLLSYGIS | VIYSDGRRTFYGDSVK | GRAIGTFDA | n.d. / n.d. / n.d. | 1 of 9 (4.47) |
| GNTLNSYGIV | VIYSDGRRTFVGDSVK | GRAAGTFDS | n.d. / n.d. / n.d. | 0 of 9 |
| GFTGNRYGIS | VIYSDGRRDFYGDSVK | GRAAGTFDS | 3.07 / n.d. / n.d. | 4 of 9 (3.77) |
| GFTLNSRGQS | VIYSDGRRTFYGDSVK | GRAAGTEDS | 3.75 / n.d. / n.d. | 1 of 9 (3.62) |
| GFPLNSYGIS | VIYDDGRRTSYGDSVK | GRAAGTFDS | n.d. / n.d. / n.d. | 0 of 9 |
| GMTLNSYGTS | VIYSDGRRTFYGDKVK | GRAAGTFDS | n.d. / 3.61 / n.d. | 0 of 9 |
| GFTLNSHGIS | VIYSDGRRTFCGDSVK | CRAAGTFDS | n.d. / 4.33 / n.d. | 5 of 9 (4.64) |
| GFTLNSYGIV | VIYSDGRRTFHGDSVK | GRAAGTFDS | 3.59 / n.d. / 3.93 | 3 of 9 (3.11) |
| GFTLNSYGIS | VIYSDGRRTIYGDSVK | GRASGHFDS | n.d. / n.d. / n.d. | 0 of 9 |

Extract of 6 entries:

CDR-H1	CDR-H2	CDR-H3	replicates, log10 nM	control signals
GFTLNSYGVS	VIYSDGRRTFYGDSFK	GRSAGTFDS	1.00 / 1.24 / 1.15	0 of 9
GFTLNSYGIS	VIYSDGRRSFYGDSVK	GRADQTFDS	n.d. / 4.64 / n.d.	1 of 9 (4.54)
GFTCNSYGIS	SIYSHGRRTFYGDSVK	GRAAGTFDS	n.d. / 3.02 / n.d.	3 of 9 (3.90)
GFTLNSRGQS	VIYSDGRRTFYGDSVK	GRAAGTEDS	3.75 / n.d. / n.d.	1 of 9 (3.62)
NFTLNSYGIS	VIYSDGRRTFYMDSVK	GRPAGTFDS	5.49 / 3.60 / 3.86	0 of 9
AFTANSYGIS	VIYSDGRRTFYGDSVK	GWAAGTFDS	n.d. / n.d. / n.d.	0 of 9